Assay results from US20240376151A1 (FOG PHARMACEUTICALS, published 2024).

Amino acid sequences for entries named in this document (tags omitted). Residues count along the entry.
UniProt Q9NZQ7, 18-239: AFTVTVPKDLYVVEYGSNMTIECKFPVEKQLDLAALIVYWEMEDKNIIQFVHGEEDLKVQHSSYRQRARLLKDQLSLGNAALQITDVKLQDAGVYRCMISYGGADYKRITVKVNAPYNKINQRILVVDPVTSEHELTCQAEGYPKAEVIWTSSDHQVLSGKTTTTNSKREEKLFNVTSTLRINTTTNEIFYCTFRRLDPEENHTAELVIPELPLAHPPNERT

Molecular target: T1, human PD-L1 (residues 18-239) with C-terminal human IgG Fc-Avi tag (human, UniProt Q9NZQ7 18-239)
T1 construct: also called PD-L1-Fc; not shown: C-terminal human IgG Fc-Avi tag
Test: SPR

Kd [µM]	Binder
0.4	DPALWQCVFAARSCYEE (Ac- at N-terminus; -NH2 at C-terminus; the two Cys stapled (Cys-stapled)) [FP28132]
1	DPALWMCVFAARQCYES (Ac- at N-terminus; -NH2 at C-terminus; the two Cys stapled (Cys-stapled)) [FP28135]
